Experimental data: patent US11292791B2 (priority 2017, dated 2022)

Target: BRD4 (Homo sapiens (Human), UniProt O60885)
Assay: biochemical
Conditions: BRD4 IC50 (μM gmean)

Compound: COC(=O)N1c2ccc3c(nc(C(C)Cn4cc(Cl)cn4)n3C3CCCNCC3)c2CC[C@@H]1C (stereo partly drawn) [Example 686]
- IC50: 0.1 to 1 µM

Compound: COC(=O)N1c2ccc3c(nc(C(OC)c4ccccc4)n3C3CCCC(C(=O)O)C3)c2CC[C@@H]1C (stereo partly drawn) [Example 473]
- IC50: 0.1 to 1 µM

Compound: COC(=O)N1c2ccc3c(nc(NCc4ccccc4)n3[C@@H]3CCC[C@@H](C(=O)O)C3)c2CC[C@@H]1C [Example 690]
- IC50: 0.1 to 1 µM

Compound: COC(=O)N1c2ccc3c(nc(Cc4cc(F)cc(OC)c4)n3[C@H]3CC[C@H](C(=O)O)CC3)c2CC[C@@H]1C [Example 595]
- IC50: 0.1 to 1 µM

Compound: COC(=O)N1c2ccc3c(nc(Nc4cccc(OC)c4)n3[C@H]3CC[C@H](C(=O)O)CC3)c2CC[C@@H]1C [Example 776]
- IC50: 0.1 to 1 µM

Compound: COC(=O)N1c2ccc3c(nc(Cc4ccc(Cl)c(OC)n4)n3[C@H]3CC[C@H](C(=O)O)CC3)c2CC[C@@H]1C [Example 518]
- IC50: 0.1 to 1 µM

Compound: COC(=O)N1c2ccc3c(nc(Cc4ccccc4)n3[C@H]3CC[C@H](C(N)=O)CC3)c2CC[C@@H]1C [Example 74, methyl (7S)-2-benzyl-7-methyl-3-[trans-4-carbamoylcyclohexyl]-3H,6H,7H,8H,9H-imidazo[4,5-f]quinoline-6-carboxylate]
- IC50: 1 to 1000 µM

Compound: COC(=O)N1c2ccc3c(nc(Nc4cccc(C)c4)n3[C@H]3CC[C@H](C(=O)O)CC3)c2CC[C@@H]1C [Example 866]
- IC50: 0.1 to 1 µM

Compound: COC(=O)N1c2ccc3c(nc(CC4CCCCO4)n3C3CCCC(C(=O)O)C3)c2CC[C@@H]1C (stereo partly drawn) [Example 635]
- IC50: 0.1 to 1 µM

Compound: COC(=O)N1c2ccc3c(nc(C(C)Cc4cnccn4)n3C3CCCC(C(=O)O)C3)c2CC[C@@H]1C (stereo partly drawn) [Example 585]
- IC50: 0.1 to 1 µM

Compound: COC(=O)N1c2ccc3c(nc(Nc4ccc(C)cc4)n3[C@@H]3CCC[C@@H](C(=O)O)C3)c2CC[C@@H]1C [Example 809]
- IC50: 0.1 to 1 µM

Compound: COC(=O)N1c2ccc3c(nc(Nc4ccc(Cl)cc4)n3[C@H]3CC[C@H](C(=O)O)CC3)c2CC[C@@H]1C [Example 865]
- IC50: 0.1 to 1 µM

Compound: COC(=O)N1c2ccc3c(nc([C@@H](O)c4ccc5c(ccn5C)c4)n3[C@@H]3CCC[C@@H](C(=O)O)C3)c2CC[C@@H]1C [Example 467]
- IC50: 0.1 to 1 µM

Compound: COC(=O)N1c2ccc3c(nc(C4(c5ccc(OC(F)F)nc5)CC4)n3[C@@H]3CCC[C@@H](C(=O)O)C3)c2CC[C@@H]1C [Example 484]
- IC50: 0.1 to 1 µM

Compound: COC(=O)N1c2ccc3c(nc(C(O)c4cc5ccccc5cn4)n3C3CCCC(C(=O)O)C3)c2CC[C@@H]1C (stereo partly drawn) [Example 587]
- IC50: 0.1 to 1 µM

Compound: COC(=O)N1c2ccc3c(nc(Nc4ccc(OC)nc4)n3[C@@H]3CCC[C@@H](C(=O)O)C3)c2CC[C@@H]1C [Example 850]
- IC50: 0.1 to 1 µM

Compound: COC(=O)N1c2ccc3c(nc(Nc4cccc(Cl)c4)n3[C@@H]3CCC[C@@H](C(=O)O)C3)c2CC[C@@H]1C [Example 788]
- IC50: 0.1 to 1 µM

Compound: COC(=O)N1c2ccc3c(nc(N(C)c4ccc(Cl)cc4)n3[C@@H]3CCC[C@@H](C(=O)O)C3)c2CC[C@@H]1C [Example 592]
- IC50: 0.1 to 1 µM

Compound: COC(=O)N1c2ccc3c(nc(Cc4cc5ccccc5[nH]4)n3[C@@H]3CCC[C@@H](C(=O)O)C3)c2CC[C@@H]1C [Example 500]
- IC50: 0.1 to 1 µM

Compound: COC(=O)N1c2ccc3c(nc(N(C)c4cccc(OC)c4)n3[C@@H]3CCC[C@@H](C(=O)O)C3)c2CC[C@@H]1C [Example 535]
- IC50: 0.1 to 1 µM

Compound: COC(=O)N1c2ccc3c(nc(Cc4cncc(OC(C)C)n4)n3[C@@H]3CCC[C@@H](C(=O)O)C3)c2CC[C@@H]1C [Example 693]
- IC50: 0.1 to 1 µM

Compound: COC(=O)N1c2ccc3c(nc(C(O)Cc4ccccc4)n3C3CCCC(C(=O)O)C3)c2CC[C@@H]1C (stereo partly drawn) [Example 503]
- IC50: 0.1 to 1 µM

Compound: COC(=O)N1c2ccc3c(nc(C(O)c4cc(F)cc(F)c4OC)n3C3CCCC(C(=O)O)C3)c2CC[C@@H]1C (stereo partly drawn) [Example 537]
- IC50: 0.1 to 1 µM

Compound: COC(=O)N1c2ccc3c(nc(C(O)c4cc(Cl)c5c(c4)CCO5)n3C3CCCC(C(=O)O)C3)c2CC[C@@H]1C (stereo partly drawn) [Example 426]
- IC50: 0.1 to 1 µM

Compound: COC(=O)N1c2ccc3c(nc(C(O)c4cccc(OC)c4)n3C3CCCC(C(=O)O)C3)c2CC[C@@H]1C (stereo partly drawn) [Example 472]
- IC50: 0.1 to 1 µM

Compound: COC(=O)N1c2ccc3c(nc([C@@H](C)OC4CCOCC4)n3[C@@H]3CCC[C@@H](C(=O)O)C3)c2CC[C@@H]1C [Example 557]
- IC50: 0.1 to 1 µM

Compound: COC(=O)N1c2ccc3c(nc(Cc4ccccc4)n3[C@H]3CC[C@H](C(=O)O)C(C)(C)C3)c2CC[C@@H]1C (single isomer, unassigned) [Example 51]
- IC50: 1 to 1000 µM

Compound: COC(=O)N1c2ccc3c(nc(Cc4ccccc4)n3[C@H]3CC[C@@H](C(N)=O)CC3)c2CC[C@@H]1C [Example 75]
- IC50: 0.1 to 1 µM

Compound: COC(=O)N1c2ccc3c(nc(C(C)(O)Cc4ccccc4)n3C3CCCC(C(=O)O)C3)c2CC[C@@H]1C (stereo partly drawn) [Example 453]
- IC50: 0.01 to 0.1 µM

Compound: COC(=O)N1c2ccc3c(nc(C(O)c4cc(F)c5c(c4)CCO5)n3C3CCCC(C(=O)O)C3)c2CC[C@@H]1C (stereo partly drawn) [Example 427]
- IC50: 0.1 to 1 µM

Compound: COC(=O)N1c2ccc3c(nc(C(C)Oc4cccnc4)n3C3CCC(C(=O)O)CC3)c2CC[C@@H]1C (stereo partly drawn) [Example 483]
- IC50: 0.1 to 1 µM

Compound: COC(=O)N1c2ccc3c(nc(C(O)c4ccc(OC)c(Cl)c4)n3C3CCCC(C(=O)O)C3)c2CC[C@@H]1C (stereo partly drawn) [Example 416]
- IC50: 0.1 to 1 µM

Compound: COC(=O)N1c2ccc3c(nc(Cc4ccc(Cl)c(OC)n4)n3[C@@H]3CCC[C@@H](C(=O)O)C3)c2CC[C@@H]1C [Example 410]
- IC50: 0.1 to 1 µM

Compound: COC(=O)N1c2ccc3c(nc(Cc4cnn(C5CC5)c4)n3[C@@H]3CCC[C@@H](C(=O)O)C3)c2CC[C@@H]1C [Example 672]
- IC50: 0.1 to 1 µM

Compound: COC(=O)N1c2ccc3c(nc(Cc4cc5ccccc5[nH]4)n3[C@H]3CC[C@H](C(=O)O)CC3)c2CC[C@@H]1C [Example 600]
- IC50: 0.1 to 1 µM

Compound: COC(=O)N1c2ccc3c(nc(Cc4cncc(OC5CC5)n4)n3[C@@H]3CCC[C@@H](C(=O)O)C3)c2CC[C@@H]1C [Example 716]
- IC50: 0.1 to 1 µM

Compound: COC(=O)N1c2ccc3c(nc(Nc4ccc(C)cc4)n3[C@H]3CC[C@H](C(=O)O)CC3)c2CC[C@@H]1C [Example 838]
- IC50: 0.1 to 1 µM

Compound: COC(=O)N1c2ccc3c(nc(C(O)c4ccc(OC)c(F)c4)n3C3CCCC(C(=O)O)C3)c2CC[C@@H]1C (stereo partly drawn) [Example 420]
- IC50: 0.1 to 1 µM

Compound: COC(=O)N1c2ccc3c(nc(C(c4ccccc4)C(C)C)n3C3CCC(C(=O)O)CC3)c2CC[C@@H]1C (stereo partly drawn) [Example 640]
- IC50: 0.1 to 1 µM

Compound: COC(=O)N1c2ccc3c(nc(Nc4cccc(C#N)c4)n3[C@@H]3CCC[C@@H](C(=O)O)C3)c2CC[C@@H]1C [Example 819]
- IC50: 0.1 to 1 µM

Compound: COC(=O)N1c2ccc3c(nc(Nc4ccc5c(C)n[nH]c5c4)n3[C@H]3CC[C@H](C(=O)O)CC3)c2CC[C@@H]1C [Example 861]
- IC50: 0.1 to 1 µM

Compound: COC(=O)N1c2ccc3c(nc(C(C)n4c(O)cc5ccccc54)n3C3CCCC(C(=O)O)C3)c2CC[C@@H]1C (stereo partly drawn) [Example 666]
- IC50: 0.1 to 1 µM

Compound: COC(=O)N1c2ccc3c(nc(Cc4cnc5c(n4)CCCC5)n3[C@@H]3CCC[C@@H](C(=O)O)C3)c2CC[C@@H]1C [Example 556]
- IC50: 0.1 to 1 µM

Compound: COC(=O)N1c2ccc3c(nc(Nc4ccc5cn[nH]c5c4)n3[C@H]3CC[C@H](C(=O)O)CC3)c2CC[C@@H]1C [Example 853]
- IC50: 0.1 to 1 µM

Compound: COC(=O)N1c2ccc3c(nc(C(C)Cc4ccc(F)c(F)c4)n3C3CCC4(CC3)CNC4)c2CC[C@@H]1C (stereo partly drawn) [Example 441]
- IC50: 0.1 to 1 µM
